## scFv variants of Ab-14 (light chain) against a SARS-CoV-2 spike peptide

Antigen: PDVDLGDISGINAS, a 14-residue peptide of the SARS-CoV-2 spike HR2 region.

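The starting antibody came from a phage panning campaign against this peptide. Library AAYL50 holds single substitutions and randomly drawn double and triple substitutions in the CDRs. The assay is AlphaSeq: two haploid yeast populations carry antibody and antigen on their surface. Binding brings cells together so that they mate, and sequencing counts the barcode pairs among the diploids. Scores were corrected for input abundance and mapped to Kd with protein pairs of known affinity run in the same pool. Mating was done three times.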

The variants keep the heavy chain, the linker and the frameworks of Ab-14 (scFv order VH, a (GGGGS)3 linker, VL).
VH: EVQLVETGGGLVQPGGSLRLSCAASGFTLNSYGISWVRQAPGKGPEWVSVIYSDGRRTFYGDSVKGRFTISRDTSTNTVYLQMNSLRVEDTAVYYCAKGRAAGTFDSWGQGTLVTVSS
VL: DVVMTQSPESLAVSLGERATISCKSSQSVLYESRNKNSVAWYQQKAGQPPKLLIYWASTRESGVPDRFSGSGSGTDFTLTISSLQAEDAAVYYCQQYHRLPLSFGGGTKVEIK

The parent's light chain CDRs are KSSQSVLYESRNKNSVA, WASTRES, QQYHRLPLS; each variant's own CDRs replace them letter for letter. Scale: log10 of Kd in nM, estimated from mating counts; low values are strong binders. Replicates are averaged; those with no signal do not enter the mean. "nd" means that the variant was in the library but no mating with the target was seen in any replicate; the authors take this as a sign of poor binding, and no number exists. Nonspecific signal, from three strains lacking the peptide, appeared in 18% of pairings of library AAYL50, centred on 4.19 (5% of these signals below 2.99); values are not corrected for it. Also given: how often the same scFv was detected with the empty control strains.

CDR-L1,CDR-L2,CDR-L3,"log10 Kd (nM), mean",detected,control signals
KSSQSVLYRSRNKNCVA,WASTRES,QQYHRLPPS,4.65,2 of 3,1 of 9
KSSQSVLYEHRNKNSVA,WAITRES,QQYHRLPLW,nd,0 of 3,0 of 9
KSSQTVLYESENKNSVL,WASTRES,QQYHRLPLS,nd,0 of 3,0 of 9
KSSQSVLEGSRNKNSVA,WASTRES,QVYHRLPLS,nd,0 of 3,0 of 9
KSLQSVLYESRNKNSVA,WASTRES,QCYHRLPLW,nd,0 of 3,1 of 9
KSSQSVYYDSRNKNPVA,WASTRES,QQYHRLPLS,1.06,3 of 3,1 of 9
KSSQSVLWESRNKNSVA,WASTREY,WQYHRLPLS,nd,0 of 3,1 of 9
KSSQSVLYPSRNKNSVA,WQSTRES,QQYCRLPLS,2.39,3 of 3,0 of 9
KSSQSVLYESRNKHSVA,WASTRES,QQRRRLPLS,nd,0 of 3,2 of 9
KSSQSVLYESRNYNSVA,WASTRES,QQQHRLPLS,nd,0 of 3,1 of 9
ISSQSVLYESRNKNSVA,WASTRLS,QQYHRLPLS,1.50,3 of 3,0 of 9
KSSQSVLYESRNQNWVA,WASTRES,QQYHRLPLS,3.50,2 of 3,2 of 9
KSSQSVLYHDRNKNSVA,WASTRES,AQYHRLPLS,nd,0 of 3,1 of 9
KPMQCVLYESRNKNSVA,WASTRES,QQYHRLPLS,4.61,3 of 3,3 of 9
KSSQSVLYESRNKNSVA,PVSTRES,QQYHRSPLS,3.52,1 of 3,0 of 9
KSSQSVLYESRNKNSVA,WASTRIS,QWGHRLPLS,3.97,1 of 3,2 of 9
KSSASVLYEPRNKNSVA,WASTRNS,QQYHRLPLS,1.85,3 of 3,0 of 9
KSCQSVLYESRNKNSVL,WASTRES,QQYRRLPLS,nd,0 of 3,2 of 9
KSKQSVLYESRNKASVA,WARTRES,QQYHRLPLS,3.84,3 of 3,2 of 9
KSSQSVLYESRNKNSES,WASTRES,QQYHRLPLS,3.53,1 of 3,1 of 9
KSSQSVLYEYANKNSVA,WASTRES,QQYHRLPLP,nd,0 of 3,1 of 9
KSSQSVLYESRNKMSVA,WASTRES,QQYHILPLS,3.10,3 of 3,4 of 9
KSSQSVLYYSRNSNSVA,WASTRES,QQYHWLPLS,3.47,2 of 3,0 of 9
KSSQLVLYESRNKNSVA,WASTRNS,QQYHDLPLS,3.33,3 of 3,2 of 9
KSSQSVLYESRNKNSVA,WVSTRES,QQHHRLPLS,5.06,2 of 3,3 of 9
KSSQSVLYESRNKNSVA,WQSTAES,QQYHRLPFS,6.13,1 of 3,1 of 9
FSIQSVLYESRNKNSVA,WASTRES,EQYHRLPLS,4.71,1 of 3,0 of 9
KSSQSRLYESRNTNSVA,WASTRES,QQYHRLPLA,1.86,3 of 3,0 of 9
KSSQFVLYEGRNKNSVA,WASNRES,QQYHRLPLS,1.58,3 of 3,0 of 9
KSIQSHLYESRNKNSVA,WASTRES,QQYHRLPLS,1.31,3 of 3,2 of 9
KSSGSVLKESRNKNSVA,WASTRES,QQYHRLPLA,2.29,3 of 3,0 of 9
RSSQSVLYESRNKNSVA,WAMTRES,QQKHRLPLS,1.95,3 of 3,3 of 9
KSSQSVLYRSRNKVSVA,WASTRES,QQYHRYPLS,nd,0 of 3,2 of 9
KSSQSVNYESFNKASVA,WASTRES,QQYHRLPLS,1.73,3 of 3,0 of 9
KSSQSYLYESRNKNFVA,WASTRES,QQYHRLWLS,4.56,1 of 3,1 of 9
KSSQSVLYESRNKNSKA,MCSTRES,QQYHRLPLS,2.07,3 of 3,0 of 9
KYSQQVLYESRNKNSVA,WESTRES,QQYHRLPLS,3.35,3 of 3,1 of 9
KDKQSVLYESRNKNSVA,WASTRES,QQYHRLPLW,1.19,3 of 3,1 of 9
KSSQSVLYESRNKNSSA,WASWNES,QQYHRLPLS,4.50,1 of 3,1 of 9
KSSQSVLYESRNGNSVA,WASYRES,QQYHRLPTS,nd,0 of 3,1 of 9
QSSQSVLYESRNKNSVA,WASTRES,QQYHRKPLS,nd,0 of 3,0 of 9
KSTQSVKYESRNKNSVA,WASTRES,QQYHRLPKS,2.98,1 of 3,0 of 9
KSSQSVLYESRNKNSVA,WASTSES,PQYHKLPLS,nd,0 of 3,0 of 9
KSSQSVLYESRNKIMVA,WASTRES,QQYHRLPHS,nd,0 of 3,0 of 9
KSSQSVLYESNNKNSVA,WACTMES,QQYHRLPLS,3.94,3 of 3,5 of 9
KSSQSVLYPSRNKNSVA,WASTRES,QQYHRLILF,2.09,3 of 3,1 of 9
KSSSSVLYESRNKNSFA,WASTRES,QQYHRVPLS,3.91,1 of 3,2 of 9
KSSQSVLYESRNKNSVA,WAWTRES,QSIHRLPLS,2.38,3 of 3,1 of 9
KSSQSVKYDSRNKNSVA,WASTTES,QQYHRLPLS,3.03,3 of 3,5 of 9
KSSQSVLYESRNKNSVA,WASTREE,QKYHRLPLH,nd,0 of 3,0 of 9
KSSQSVLYESRNKNDVP,WASTDES,QQYHRLPLS,4.88,1 of 3,3 of 9
DSSQSVLYEWRNKNSVA,WASTRES,QQYQRLPLS,3.50,1 of 3,2 of 9
KSSQSVLYESRNKGSVN,WASTRES,GQYHRLPLS,nd,0 of 3,1 of 9

The opening 5 entries, copied out:

CDR-L1,CDR-L2,CDR-L3,"log10 Kd (nM), mean",detected,control signals
KSSQSVLYRSRNKNCVA,WASTRES,QQYHRLPPS,4.65,2 of 3,1 of 9
KSSQSVLYEHRNKNSVA,WAITRES,QQYHRLPLW,nd,0 of 3,0 of 9
KSSQTVLYESENKNSVL,WASTRES,QQYHRLPLS,nd,0 of 3,0 of 9
KSSQSVLEGSRNKNSVA,WASTRES,QVYHRLPLS,nd,0 of 3,0 of 9
KSLQSVLYESRNKNSVA,WASTRES,QCYHRLPLW,nd,0 of 3,1 of 9

From the AlphaSeq antibody data of Engelhart et al. 2022 (doi:10.1038/s41597-022-01779-4), copy in the FLAb collection.